target: T1, full-length B-Catenin (Uniprot ID P35222) (Homo sapiens, UniProt P35222); type: binding; conditions: competition fluorescence polarization; read-out: beta-Catenin FP IC50
T1 construct: 10 nM full-length B-Catenin (Uniprot ID P35222)

By UniProt entry, the sequences of proteins in these tests, tags left out.
UniProt P35222, whole entry: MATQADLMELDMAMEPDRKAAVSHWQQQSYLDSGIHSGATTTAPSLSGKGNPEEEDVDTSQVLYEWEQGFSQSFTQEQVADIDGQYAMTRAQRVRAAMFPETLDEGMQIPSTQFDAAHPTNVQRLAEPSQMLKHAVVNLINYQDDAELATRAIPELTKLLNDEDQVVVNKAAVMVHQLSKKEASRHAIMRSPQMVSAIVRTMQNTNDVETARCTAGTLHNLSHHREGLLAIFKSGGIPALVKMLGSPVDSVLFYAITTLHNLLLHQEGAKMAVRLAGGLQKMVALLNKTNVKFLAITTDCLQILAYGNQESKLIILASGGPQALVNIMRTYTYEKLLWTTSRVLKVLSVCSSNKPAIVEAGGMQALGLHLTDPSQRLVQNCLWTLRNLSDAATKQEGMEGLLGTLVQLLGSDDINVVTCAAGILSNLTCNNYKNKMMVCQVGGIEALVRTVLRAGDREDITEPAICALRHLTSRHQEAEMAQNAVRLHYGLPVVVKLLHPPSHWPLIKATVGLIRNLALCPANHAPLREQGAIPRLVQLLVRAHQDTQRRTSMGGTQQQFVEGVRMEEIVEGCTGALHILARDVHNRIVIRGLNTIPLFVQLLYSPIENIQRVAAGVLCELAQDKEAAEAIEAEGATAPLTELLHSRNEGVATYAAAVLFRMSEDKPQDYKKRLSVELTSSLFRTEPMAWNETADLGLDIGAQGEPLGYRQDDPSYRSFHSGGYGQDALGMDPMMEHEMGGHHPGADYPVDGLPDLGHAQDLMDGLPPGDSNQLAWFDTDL

| Substance | IC50 [nM] |
| --- | --- |
| Ac-PL3-Asp-Npg-B5-Asp-3COOHF-Aib-Ala-Phe-TriAzLys*3-PyrS2-3Thi-34ClF-sAla*3-Ala-NH2 [I-1088] | < 50 |
| Ac-PL3-Asp-Npg-B5-Asp-3COOHF-Aib-Ala-Phe-TriAzLys*3-PyrS2-3Thi-34ClF-sAla*3-NH2 [I-1086] | < 50 |
| Ac-PL3-Asp-Npg-B5-Asp-3COOHF-Aib-Ala-Phe-TriAzLys*3-PyrS2-Phe-34ClF-sAla*3-Ala-NH2 [I-1093] | < 50 |
| Ac-PL3-Asp-Npg-B5-Asp-3COOHF-Aib-Ala-Phe-TriAzLys*3-PyrS2-Phe-34ClF-sAla*3-NH2 [I-1092] | < 50 |
| Ac-PL3-Asp-Npg-B5-Asp-3COOHF-Aib-Ala-Phe-TriAzLys*3-PyrSc7-3Thi-BztA-sAla*3-Ala-NH2 [I-1125] | < 50 |
| Ac-PL3-Asp-Npg-B5-Asp-3COOHF-Aib-Ala-Phe-TriAzLys*3-PyrSc72RMe3SOMe-3Thi-BztA-sAla*3-Ala-NH2 [I-1121] | < 50 |
| Ac-PL3-Asp-Npg-B5-Asp-3COOHF-Aib-Ala-Phe-TriAzLys*3-PyrSc72SMe3ROMe-3Thi-BztA-sAla*3-Ala-NH2 [I-1120] | < 50 |
| Ac-PL3-Asp-Npg-B5-Asp-3COOHF-Aib-Ala-Phe-TriAzLys*3-PyrSc73Me2-3Thi-BztA-sAla*3-Ala-NH2 [I-1124] | < 50 |
| Ac-PL3-Asp-Npg-B5-Asp-3COOHF-Aib-Ala-Phe-TriAzLys*3-[2Me4VinPhAc2]PyrSa-3Thi-BztA-sAla*3-Ala-NH2 [I-1449] | 50 to 200 |
| Ac-PL3-Asp-Npg-B5-Asp-3COOHF-Aib-Ala-Phe-TriAzLys*3-[3OHBz]PyrSa-3Thi-BztA-sAla*3-Ala-NH2 [I-1438] | < 50 |
| Ac-PL3-Asp-Npg-B5-Asp-3COOHF-Aib-Ala-Phe-TriAzLys*3-[3SBz]PyrSa-3Thi-BztA-sAla*3-Ala-NH2 [I-1450] | 50 to 200 |
| Ac-PL3-Asp-Npg-B5-Asp-3COOHF-Aib-Ala-Phe-TriAzLys*3-[4VinylBzt]PyrSa-3Thi-BztA-sAla*3-Ala-NH2 [I-1437] | 50 to 200 |
| Ac-PL3-Asp-Npg-B5-Asp-3COOHF-Aib-Ala-Phe-TriAzLys*3-[CO][Ala]PyrSa-3Thi-BztA-sAla*3-Ala-NH2 [I-1126] | < 50 |
| Ac-PL3-Asp-Npg-B5-Asp-3COOHF-Aib-Ala-Phe-TriAzLys*3-[CO][Nip]PyrSa-3Thi-BztA-sAla*3-Ala-NH2 [I-1444] | 50 to 200 |
| Ac-PL3-Asp-Npg-B5-Asp-3COOHF-Aib-Ala-Phe-TriAzLys*3-[CO][Pro]PyrSa-3Thi-BztA-sAla*3-Ala-NH2 [I-1448] | 50 to 200 |
| Ac-PL3-Asp-Npg-B5-Asp-3COOHF-Aib-Ala-Phe-TriAzLys*3-[CO][Sar]PyrSa-3Thi-BztA-sAla*3-Ala-NH2 [I-1443] | 50 to 200 |
| Ac-PL3-Asp-Npg-B5-Asp-3COOHF-Aib-Ala-Phe-TriAzLys*3-[CO][Val]PyrSa-3Thi-BztA-sAla*3-Ala-NH2 [I-1440] | < 50 |
| Ac-PL3-Asp-Npg-B5-Asp-3COOHF-Aib-Ala-Phe-TriAzLys*3-[CO][dAla]PyrSa-3Thi-BztA-sAla*3-Ala-NH2 [I-1127] | < 50 |
| Ac-PL3-Asp-Npg-B5-Asp-3COOHF-Aib-Ala-Phe-TriAzLys*3-[CO][dNip]PyrSa-3Thi-BztA-sAla*3-Ala-NH2 [I-1445] | 50 to 200 |
| Ac-PL3-Asp-Npg-B5-Asp-3COOHF-Aib-Ala-Phe-TriAzLys*3-[CO][dVal]PyrSa-3Thi-BztA-sAla*3-Ala-NH2 [I-1442] | < 50 |
| Ac-PL3-Asp-Npg-B5-Asp-3COOHF-Aib-Ala-Phe-TriAzLys*3-[RMeIso2]PyrSc704-3Thi-BztA-sAla*3-Ala-NH2 [I-1123] | 50 to 200 |
| Ac-PL3-Asp-Npg-B5-Asp-3COOHF-Aib-Ala-Phe-TriAzLys*3-[SMeIso2]PyrSc704-3Thi-BztA-sAla*3-Ala-NH2 [I-1122] | 50 to 200 |
| Ac-PL3-Asp-Npg-B5-Asp-3COOHF-Aib-Ala-Phe-[2_6-naph]hCys-PyrS2-3Thi-BztA-Cys-Ala-NH2 [I-1270] | 200 to 750 |

| Substance | IC50 [nM] |
| --- | --- |
| Ac-PL3-Asp-Npg-B5-Asp-3COOHF-Aib-Ala-Phe-[3_3-biPh]hCys-PyrS2-3Thi-BztA-Cys-Ala-NH2 [I-1269] | 50 to 200 |
| Ac-PL3-Asp-Npg-B5-Asp-3COOHF-Aib-Ala-Phe-[13Ac]hCys-PyrS2-3Thi-BztA-Cys-Ala-NH2 [I-1283] | < 50 |
| Ac-PL3-Asp-Npg-B5-Asp-3COOHF-Aib-Ala-Phe-[13Ac]hCys-PyrS2-3Thi-BztA-aMeC-Ala-NH2 [I-1430] | 50 to 200 |
| Ac-PL3-Asp-Npg-B5-Asp-3COOHF-Aib-Ala-Phe-[33Oxe]Cys-PyrS2-3Thi-BztA-aMeC-Ala-NH2 [I-1391] | 50 to 200 |
| Ac-PL3-Asp-Npg-B5-Asp-3COOHF-Aib-Ala-Phe-[33Oxe]hCys-PyrS2-3Thi-BztA-Cys-Ala-NH2 [I-1276] | < 50 |
| Ac-PL3-Asp-Npg-B5-Asp-3COOHF-Aib-Ala-Phe-[C3]Cys-PyrS2-3Thi-BztA-Cys-Ser-NH2 [I-1522] | < 50 |
| Ac-PL3-Asp-Npg-B5-Asp-3COOHF-Aib-Ala-Phe-[C3]Cys-PyrS2-3Thi-BztA-Pen-Ala-NH2 [I-1459] | 50 to 200 |
| Ac-PL3-Asp-Npg-B5-Asp-3COOHF-Aib-Ala-Phe-[C3]Cys-PyrS2-3Thi-BztA-aMeC-Ala-NH2 [I-1388] | 50 to 200 |
| Ac-PL3-Asp-Npg-B5-Asp-3COOHF-Aib-Ala-Phe-[C3]hCys-PyrS2-3Thi-BztA-Pen-Ala-NH2 [I-1471] | 50 to 200 |
| Ac-PL3-Asp-Npg-B5-Asp-3COOHF-Aib-Ala-Phe-[C3]hCys-PyrS2-3Thi-BztA-aMeC-Ala-NH2 [I-1427] | 50 to 200 |
| Ac-PL3-Asp-Npg-B5-Asp-3COOHF-Aib-Ala-Phe-[IsoE]Cys-PyrS2-3Thi-BztA-aMeC-Ala-NH2 [I-1389] | 50 to 200 |
| Ac-PL3-Asp-Npg-B5-Asp-3COOHF-Aib-Ala-Phe-[IsoE]Cys-PyrS2-3Thi-BztA-hCys-Ala-NH2 [I-1462] | 50 to 200 |
| Ac-PL3-Asp-Npg-B5-Asp-3COOHF-Aib-Ala-Phe-[IsoE]hCys-PyrS2-3Thi-BztA-aMeC-Ala-NH2 [I-1429] | < 50 |
| Ac-PL3-Asp-Npg-B5-Asp-3COOHF-Aib-Ala-Phe-[IsoE]hCysOx-PyrS2-3Thi-BztA-aMeC-Ala-NH2 [I-1460] | < 50 |
| Ac-PL3-Asp-Npg-B5-Asp-3COOHF-Aib-Ala-Phe-[Mpyr]Cys-PyrS2-3Thi-BztA-Cys-Ser-NH2 [I-1520] | < 50 |
| Ac-PL3-Asp-Npg-B5-Asp-3COOHF-Aib-Ala-Phe-[Mxyl]Cys-PyrS2-3Thi-BztA-Cys-Ser-NH2 [I-1519] | < 50 |
| Ac-PL3-Asp-Npg-B5-Asp-3COOHF-Aib-Ala-Phe-[Red]Cys-PyrS2-3Thi-BztA-Cys-Ser-NH2 [I-1521] | < 50 |
| Ac-PL3-Asp-Npg-B5-Asp-3COOHF-Aib-Ala-Phe-[Red]hCys-PyrS2-3Thi-BztA-aMeC-Ala-NH2 [I-1428] | 200 to 750 |
| Ac-PL3-Asp-Npg-B5-Asp-3COOHF-Aib-Ala-Phe-[m5Meb]Cys-PyrS2-3Thi-BztA-aMeC-Ala-NH2 [I-1390] | 50 to 200 |
| Ac-PL3-Asp-Npg-B5-Asp-3COOHF-Aib-Ala-Phe-[m5Meb]hCys-PyrS2-3Thi-BztA-aMeC-Ala-NH2 [I-1426] | 50 to 200 |
| Ac-PL3-Asp-Npg-B5-Asp-3COOHF-Aib-Ala-Phe-[m5Pyr]Cys-PyrS2-3Thi-BztA-Cys-Ala-NH2 [I-1451] | < 50 |
| Ac-PL3-Asp-Npg-B5-Asp-3COOHF-Aib-Ala-Phe-[m5Pyr]Cys-PyrS2-3Thi-BztA-Pen-Ala-NH2 [I-1455] | < 50 |

same assay, conditions: read-out: beta-catenin TCF4 competition FP assay IC50

| Substance | IC50 [nM] |
| --- | --- |
| Ac-PL3-Asp-Npg-B5-Asp-3COOHF-Aib-Ala-Phe-[m5Pyr]Cys-PyrS2-3Thi-BztA-Cys-Ala-NH2 [I-1451] | 14 |
